Reference: IntAct's records for PubMed 21829704

B1: Advanced glycosylation end product-specific receptor (Homo sapiens), Q15109 (parent)
chain: MAAGTAVGAWVLVLSLWGAVVGAQNITARIGEPLVLKCKGAPKKPPQRLEWKLNTGRTEAWKVLSPQGGGPWDSVARVLPNGSLFLPAVGIQDEGIFRCQAMNRNGKETKSNYRVRVYQIPGKPEIVDSASELTAGVPNKVGTCVSEGSYPAGTLSWHLDGKPLVPNEKGVSVKEQTRRHPETGLFTLQSELMVTPARGGDPRPTFSCSFSPGLPRHRALRTAPIQPRVWEPVPLEEVQLVVEPEGGAVAPGGTVTLTCEVPAQPSPQIHWMKDGVPLPLPPSPVLILPEIGPQDQGTYSCVATHSSHGPQESRAVSISIIEPGEEGPTAGSVGGSGLGTLALALGILGGLGTAALLIGVILWQRRQRRGEERKAPENQEEEEERAELNQSEEPEAGESSTGGP
partner: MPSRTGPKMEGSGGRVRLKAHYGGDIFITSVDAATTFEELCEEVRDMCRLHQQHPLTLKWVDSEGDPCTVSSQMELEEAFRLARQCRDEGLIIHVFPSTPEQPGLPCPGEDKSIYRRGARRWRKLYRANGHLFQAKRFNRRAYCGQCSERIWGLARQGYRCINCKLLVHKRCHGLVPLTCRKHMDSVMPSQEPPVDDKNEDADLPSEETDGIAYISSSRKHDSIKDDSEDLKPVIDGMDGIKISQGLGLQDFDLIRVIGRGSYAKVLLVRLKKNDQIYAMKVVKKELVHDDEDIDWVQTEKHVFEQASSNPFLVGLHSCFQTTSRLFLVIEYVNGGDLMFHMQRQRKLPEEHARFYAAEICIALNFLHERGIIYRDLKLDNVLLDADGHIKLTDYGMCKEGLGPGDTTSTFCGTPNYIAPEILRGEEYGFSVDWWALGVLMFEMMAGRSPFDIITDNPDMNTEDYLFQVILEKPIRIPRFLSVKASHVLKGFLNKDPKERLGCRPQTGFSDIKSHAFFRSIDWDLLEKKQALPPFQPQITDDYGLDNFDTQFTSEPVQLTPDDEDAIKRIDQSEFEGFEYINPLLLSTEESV

Variants of: B1
Conditions: with kpcz_human PRKCZ
For S391A, the “effect of a mutation on the interaction” value was “with no effect”.

Variants of: B1
Conditions: with kpcz_human PRKCZ
Remark: another data set of the same source
For S391E, the “effect of a mutation on the interaction” value was “with no effect”.
